PMC12044326 (Clinical Pharmacology in Drug Development, 2025)

Amino acid sequences for entries named in this document (tags omitted). Residues count along the entry.
UniProt P08684, 2-503: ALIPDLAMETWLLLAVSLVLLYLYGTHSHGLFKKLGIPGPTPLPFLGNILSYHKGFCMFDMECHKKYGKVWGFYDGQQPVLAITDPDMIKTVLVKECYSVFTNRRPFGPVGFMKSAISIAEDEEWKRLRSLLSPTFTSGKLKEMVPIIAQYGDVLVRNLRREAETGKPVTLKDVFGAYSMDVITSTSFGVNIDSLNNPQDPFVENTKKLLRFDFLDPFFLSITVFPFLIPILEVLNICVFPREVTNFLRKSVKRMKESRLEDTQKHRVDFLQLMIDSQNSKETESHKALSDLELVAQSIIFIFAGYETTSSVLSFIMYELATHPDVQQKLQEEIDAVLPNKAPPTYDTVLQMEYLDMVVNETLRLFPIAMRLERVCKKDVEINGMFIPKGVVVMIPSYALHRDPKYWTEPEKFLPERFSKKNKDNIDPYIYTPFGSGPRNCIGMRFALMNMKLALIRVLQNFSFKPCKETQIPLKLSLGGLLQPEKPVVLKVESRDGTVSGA

How the values were obtained:
[1] = PBPK simulation of soticlestat PK after single and multiple doses; parameters: species or system human; conditions: arithmetic means
Source text: All PBPK modeling and simulation used the Simcyp v20 Population‐based Simulator (Simcyp Ltd, a Certara Company, Sheffield, UK). The modeling was split into 4 parts: development, refinement, verification, and application (Figure 1). The studies contributing to the model, which phase of model development/validation the data were used for, the number of individuals with available data from each study, the number of PK data points available from each study, and the number of PK datapoints below the lower limit of quantification (LLOQ) from each study are presented in Table S1. […] No additional data points were excluded. Predictions of plasma drug concentration–time profiles, clearance, and DDIs were performed in the Simcyp Simulator using a population of virtual individuals. In model development, refinement, and verification, the proportion of female participants, the number of volunteers, and the volunteer age range were set to be the same as in the clinical studies.

CYP3A [2] = target: T1, CYP3A (Homo sapiens, UniProt P08684); conditions: cited from earlier work
in vitro = in vitro ADME
Source text: […]. […] […]. […] […]

CYP3A [3] = target: T1, CYP3A; conditions: human liver microsomes
UGT2B4 = target: T2, UGT2B4 (Homo sapiens, UniProt P06133); conditions: cultured primary hepatocytes; cited from earlier work
T2 sequence (P06133 24-528): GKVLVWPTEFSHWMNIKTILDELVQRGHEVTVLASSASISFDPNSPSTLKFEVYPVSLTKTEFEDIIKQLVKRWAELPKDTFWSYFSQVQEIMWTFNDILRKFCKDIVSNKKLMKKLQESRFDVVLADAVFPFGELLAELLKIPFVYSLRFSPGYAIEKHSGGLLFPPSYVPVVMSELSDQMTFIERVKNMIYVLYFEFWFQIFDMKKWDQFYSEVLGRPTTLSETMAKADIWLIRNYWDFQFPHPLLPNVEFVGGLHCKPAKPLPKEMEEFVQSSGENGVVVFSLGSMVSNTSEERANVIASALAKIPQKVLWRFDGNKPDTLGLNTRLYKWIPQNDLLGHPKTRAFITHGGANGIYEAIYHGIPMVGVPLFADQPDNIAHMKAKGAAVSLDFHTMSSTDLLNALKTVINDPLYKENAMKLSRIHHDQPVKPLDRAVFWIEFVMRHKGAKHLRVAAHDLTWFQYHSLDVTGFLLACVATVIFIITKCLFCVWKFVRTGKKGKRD

UGT1A9 = target: T3, UGT1A9 (Homo sapiens, UniProt O60656); conditions: cultured primary human hepatocytes; cited from earlier work
T3 sequence (O60656 26-530): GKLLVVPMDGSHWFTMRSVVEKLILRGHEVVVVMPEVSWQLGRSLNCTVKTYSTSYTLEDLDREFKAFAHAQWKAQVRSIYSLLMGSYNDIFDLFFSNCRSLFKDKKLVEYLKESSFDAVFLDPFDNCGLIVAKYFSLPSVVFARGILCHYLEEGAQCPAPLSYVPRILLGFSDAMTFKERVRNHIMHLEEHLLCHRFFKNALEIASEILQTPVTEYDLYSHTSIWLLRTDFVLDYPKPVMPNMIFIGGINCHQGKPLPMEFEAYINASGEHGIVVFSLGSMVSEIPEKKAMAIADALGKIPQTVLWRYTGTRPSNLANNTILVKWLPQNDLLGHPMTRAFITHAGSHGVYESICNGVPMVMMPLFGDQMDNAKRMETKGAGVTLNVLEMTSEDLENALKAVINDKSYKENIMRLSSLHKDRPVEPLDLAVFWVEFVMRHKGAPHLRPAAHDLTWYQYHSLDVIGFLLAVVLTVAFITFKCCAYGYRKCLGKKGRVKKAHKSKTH

[4] = single IV dose [14C] soticlestat 50 µg
[5] = with itraconazole relative to soticlestat alone
[6] = with rifampin relative to soticlestat alone

In the case of `O=C(c1cccnc1-c1ccncc1)N1CCC(O)(Cc2ccccc2)CC1` [Soticlestat], the “simulated AUC0‐inf relative to observed” value [1, 4] is reported as 0.90 fold, the “simulated Cmax relative to observed” value [1, 4] is reported as 1.51 fold and the “simulated AUC0‐inf relative to observed” value ([1]; single oral dose 300 mg) is reported as 0.88 fold. The “simulated Cmax relative to observed” value ([1]; single oral dose 300 mg) was 0.78 fold, the “increase of soticlestat AUC0‐inf” value (CYP3A [2]; [5]) was 24% and the “increase of soticlestat Cmax” value (CYP3A [2]; [5]) was 17%. The “decrease of soticlestat AUC0‐inf” value (CYP3A [2]; [6]) was 84%, the “decrease of soticlestat Cmax” value (CYP3A [2]; [6]) was 87% and the blood plasma ratio (in vitro) was 0.687. The “inhibition of CYP3A” value (CYP3A [3]) was “low double‐digit micromolar values”.
For `CO[C@H]1/C=C/O[C@@]2(C)Oc3c(C)c(O)c4c(O)c(c(/C=N/N5CCN(C)CC5)c(O)c4c3C2=O)NC(=O)/C(C)=C\C=C\[C@H](C)[C@H](O)[C@@H](C)[C@@H](O)[C@@H](C)[C@H](OC(C)=O)[C@@H]1C` [rifampin], the “increase of expression of UGT2B4” value (UGT2B4) is given as 1.89 fold and the “increase of UGT1A9‐mediated propofol glucuronidation” value (UGT1A9) is given as “up to 1.7 fold”.
